Measurements from PMC9319560 (Viruses, 2022).

Tested on: IFN-λ
Experiment: Type III interferon quantification using HEK-Blue IFN-λ cells
Type: cell-based, human
Conditions: NHEK, WNV MOI 0.1, 48 h, 1 or 10 µg/mL peptide, HEK-Blue IFN-λ reporter cells, versus infected cells alone; 4 independent experiments

| Substance | secretion levels of IFNs-λ in the cell culture supernatants |
| --- | --- |
| LL-37 | enhanced interferon secretion |
| hBD-3 (GIINTLQKYYCRVRGGRCAVLSCLPKEEQIGKCSTRGRKCCRRKK; Beta-defensin 103; UniProt P81534 23-67, looked up) [type 3 human β-defensin, skin antimicrobial peptide; purchased from PeproTech] | increase was significant |
